Source: patent publication US20250351832A1, “PHYTOCHEMICALS AS BIOPESTICIDES AND BIOSTIMULANTS” (KAY BEE BIO ORGANICS PVT. LTD., priority 2024, published 2025)
Where two headings read alike, the source gives them in different places.

Test system: Xanthomonas axanopodis pv. punicae
Details: for Pre Spraying (disease): baseline before spray
[1] = pomegranate plants inoculated with Xanthomonas axanopodis pv. punicae, 5th day after spray, dose 1 ml/gm/lit
[2] = pomegranate plants inoculated with Xanthomonas axanopodis pv. punicae, 7th day after spray, dose 1 ml/gm/lit
[3] = pomegranate plants inoculated with Xanthomonas axanopodis pv. punicae, dose 1 ml/gm/lit
[4] = […], 7th day after spray, dose 1 ml/gm/lit

| Molecule | 7th day after spray (disease) [4] | other results |
| --- | --- | --- |
| Berberine | – | 5th day after spray (disease) [1]: 12.25; 7th day after spray (disease) [2]: 9.50; Pre Spraying (disease) [3]: 16.00 |
| CC12CCC(CC1=O)C2(C)C (stereo not drawn) [Camphor] | 11.25 | – |
| C=C1C2CCC(C2)C1(C)C (stereo not drawn) [Camphene, camphene] | 13.50 | – |
| CC1=CC(=O)C(C(C)C)=CC1=O [Thymoquinone] | 9.25 | – |
| Parthenin | – | 5th day after spray (disease) [1]: 14.25; 7th day after spray (disease) [2]: 12.75; Pre Spraying (disease) [3]: 15.25 |
| CC(C)c1ccc(C=O)cc1 [Cuminaldehyde] | – | 5th day after spray (disease) (in vivo): 12.25; 7th day after spray (disease) (in vivo): 10.00 |
| CC1=CCC2CC1C2(C)C (stereo not drawn) [Alpha-pinene] | 14.25 | – |
| Cc1ccc(C(C)C)c(O)c1 [Thymol] | 10.25 | – |
| CC(C)=CCCC(C)=CC=O [Citral] | 10.50 | – |
| C=CCc1ccc(OC)cc1 [Methyl chavicol] | 10.25 | – |
| C=CCc1ccc(O)c(OC)c1 [Eugenol] | 11.00 | – |
| Cc1ccc(C(C)C)cc1O [Carvacrol] | 11.50 | – |
| CCCCCCCCCCCCCCCC(=O)O [Palmitic acid] | 8.75 | – |
| O=C(/C=C/C=C/c1ccc2c(c1)OCO2)N1CCCCC1 [Piperine] | 13.00 | – |
| C/C=C\c1cc(OC)c(OC)cc1OC [β-Asarone] | 11.75 | – |
| CCCCC[C@H](O)CC(=O)CCc1ccc(O)c(OC)c1 [Gingerol] | 10.50 | – |
| CC12CCC(CC1)C(C)(C)O2 [1,8 cineole] | 13.25 | – |
| CC1CCC(C(C)C)C(O)C1 (stereo not drawn) [Menthol] | 7.00 | – |
| C=C(C)[C@H]1CC=C(C)CC1 [D-limonene] | 10.75 | – |
| COc1cc(CNC(=O)CCCC/C=C/C(C)C)ccc1O [Capsaicin] | – | 5th day after spray (disease) (in vivo): 11.75; 7th day after spray (disease) (in vivo): 7.50 |
| O=c1oc2c(O)c(O)cc3c(=O)oc4c(O)c(O)cc1c4c23 [Ellagic acid] | 12.00 | – |
| Cc1ccc(C(C)C)cc1 [p-Cymene] | 7.25 | – |
| CCCCCCCCCC(C)=O [Embodiment 2-undecanone, 2-undecanone] | 8.75 | – |
| C=CCc1ccc(OC)c(O)c1 [Chavibetol] | 8.25 | – |
